Experimental data from patent US20200319163A1, “METHODS AND COMPOSITIONS OVERCOMING CANCER CELL IMMUNE RESISTANCE” (Georgetown University, priority 2019, published 2020).

What was measured:
[1] = system: ADCCR1 cells; experiment: ADCC assay (specific lysis by NK92-CD16V effector cells) on ADCC-resistant cells; assay type: cell-based, human; details: trastuzumab 5 μg/mL, 4 hours, 1:1 E:T; FIG. 2E
Excerpt: Inhibitors of histone acetyltransferase C646 (cat. no. S7152), DNA methyltransferase azacytidine (cat. no. S1782), histone demethylase GSK J4 HCL (cat. no. S7070), and HDAC panobinostat (cat. no. S1030) were purchased from Selleck Chemicals. Inhibitors were solubilized in DMSO at […]. Vehicle treatment (DMSO) was used at the highest equivalent v/v used in inhibitor treatments.
ADCC assays were preformed using A431/ADCCS1/ADCCR1 as target cells and NK92-CD16V cells as the effector cells. Target cells are plated at 10,000 cells/well overnight (A431 cells double overnight).

[2] = system: ADCC resistant cells of the SKOV3 cell line; experiment: Immunofluorescent imaging for trastuzumab in SKOV3 cell line; assay type: binding; details: SKOV3 ADCC resistant vs sensitive cells; FIG. 38
[3] = system: ADCCR1 cells; experiment: Flow cytometry analysis of directly-labeled cetuximab binding; set-up: species or system human; details: FIG. 36
Procedure: A431 cells were cultured for 3 to 6 passages and then were dissociated using 0.25% trypsin, resuspended in DMEM plus 10% FBS and 1% 1-glutamine. Cells (0.5×10^6 to 1×10^6) were aliquoted into Eppendorf tubes, spun at 5,000 rpm for 1 minute at 4° C., washed twice with HBSS (Fisher Scientific; cat. no. SH3058801), and resuspended in 100 μL of FACS buffer (PBS plus 1% BSA). All antibodies used are labeled antibodies, and no blocking step was performed. Labeled antibodies were then added at the manufacturer's recommended concentrations and incubated at 4° C. for 30 minutes, with vortexing at 15 minutes. For intracellular staining, cells were resuspended in 50 μL of BD perm/wash (cat. no. 554723) for 20 minutes before proceeding to staining with antibody at 4° C. for 30 minutes. Cells were then washed with FACS buffer twice and resuspended in FACS buffer or fixative (1% PFA in PBS). Flow antibodies were purchased from BioLegend: EGFR (cat. no. 352904), CD74 (cat. no. 326807), CD54/ICAM (cat. no. 322713), CD142 (cat. no. 365205), CD73 (cat. no. 344021), ITGB4/CD104 (cat. no. 343903), ALCAM/CD166 (cat. no. 343903), CD95/Fas (cat. no. 305611), CD138, (cat. no. 352307), and APC-labeled IgG1 isotype control (cat. no. 400121). CD107a (cat. no. 641581), CD44 (cat. no. 559942), HER2 (cat. no. 340879), and PD-L1 (cat. no. 557929) were purchased from BD Biosciences. […]

[4] = system: ADCCR1 cells; experiment: Immunofluorescent imaging for directly labeled cetuximab, resistant cells; assay type: binding, human; details: FIG. 37
Excerpt: (§1) As previously discussed, ADCCR1 cells express EGFR but are not bound by directly-labeled cetuximab.

[5] = system: ADCCS1 cells; experiment: Immunofluorescent imaging for directly labeled cetuximab, sensitive cells; assay type: binding, human; details: FIG. 37
Excerpt: as §1

[6] = system: A431 cells; details: EGFR-overexpressing A431 cells, NK92-CD16V; previously shown (Murray 2014); cited from earlier work

Substance | ADCC mediated by trastuzumab (specific lysis) [1] | trastuzumab binding (immunofluorescence) [2] | binding of directly-labeled cetuximab (flow cytometry) [3] | detection of directly labeled cetuximab (immunofluorescence) [4] | detection of directly labeled cetuximab (immunofluorescence) [5] | sensitivity to cetuximab-mediated ADCC [6]
trastuzumab | displayed resistance to ADCC | profound loss of trastuzumab binding |  |  |  | 
cetuximab |  |  | not bound | weakly detected on the cell surface and perinuclearly | detected more strongly on cell surface and perinuclearly | sensitive
